Assay results reported in BindingDB's records for doi:10.1021/acs.jmedchem.0c00182 (Inception Therapeutics, 2020).

Assays:
[1] = Binding affinity to full length recombinant eIF4A1 (unknown origin) assessed as induction ternary complex formation in presence of AGAGAG by measuring Kd for CAACAA + ATP complex formation SPR assay (Rvb = 3.78 +/- 0.05 microM)
[2] = Binding affinity to full length recombinant eIF4A1 (unknown origin) assessed as induction ternary complex formation in presence of AGAGAG by measuring Kd for CCGCCG + ATP complex formation SPR assay (Rvb = 3.27 +/- 0.06 microM)
[3] = Binding affinity to full length recombinant eIF4A1 (unknown origin) assessed as induction ternary complex formation in presence of AGAGAG by measuring Kd for AGAGAG + ATP complex formation SPR assay (Rvb = 8 +/- 0.9 microM)
[4] = Binding affinity to full length recombinant eIF4A1 (unknown origin) assessed as induction ternary complex formation in presence of AGAGAG by measuring Kd for GGCGGC + ATP complex formation SPR assay (Rvb = 8 +/- 0.3 microM)

## COc1cc2c(c(OC)n1)[C@]1(O)[C@H](O)[C@H](CN(C)C)[C@@H](c3ccccc3)[C@]1(c1ccc(C#N)cc1)O2 [Zotatifin]
[1]
  Kd: 2.43 µM
[2]
  Kd: 9.6 µM
[3]
  Kd: 0.021 µM
[4]
  Kd: 3.19 µM
